Data on one molecule can be found in patent US20170137514A1 (Bristol-Myers Squibb, published 2017).

The target of assay [1] is T1, human LAG-3 on activated Hu CD4+ T cells.
T1 construct: differs from m5, which is LAG-3 transduced into 3A9 cells; also called native human LAG-3
T1 chain: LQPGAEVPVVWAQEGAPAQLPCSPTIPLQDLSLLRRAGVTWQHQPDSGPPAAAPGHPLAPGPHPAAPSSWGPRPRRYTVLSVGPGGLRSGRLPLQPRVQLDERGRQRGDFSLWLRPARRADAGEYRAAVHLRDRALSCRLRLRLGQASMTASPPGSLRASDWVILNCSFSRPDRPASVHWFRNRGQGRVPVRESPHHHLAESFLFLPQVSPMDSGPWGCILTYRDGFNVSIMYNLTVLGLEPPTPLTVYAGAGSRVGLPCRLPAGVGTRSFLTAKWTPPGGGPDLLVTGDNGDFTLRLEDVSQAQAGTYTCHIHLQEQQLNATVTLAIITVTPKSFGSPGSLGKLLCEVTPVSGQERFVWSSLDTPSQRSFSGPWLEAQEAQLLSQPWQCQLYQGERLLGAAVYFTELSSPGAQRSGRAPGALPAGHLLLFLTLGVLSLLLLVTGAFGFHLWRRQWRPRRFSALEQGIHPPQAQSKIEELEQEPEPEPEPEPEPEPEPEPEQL
The assay is described as follows: flow cytometry on activated human CD4+ T cells (donor WB1907), FL2 GMFI; forced stability study, sample not marked pH 8. How it is done:
(§1) To test the ability of the antibody variants to bind to native human LAG-3 on the surface of activated human T cells, normal healthy donor peripheral blood mononuclear cells were stimulated in 15 cm tissue culture plates at a density of 2×10e6 cells/mL, with a combination of anti-CD3 (eBioscience, Cat #16-0037-85) and anti-CD28 (BD Bioscience, Cat #555725) antibodies present in solution at 5 μg/mL and 3 μg/mL, respectively. Following three days of stimulation cells were harvested, washed 1× with 1×PFAE buffer (1×PBS+2% FBS, 0.02% sodium azide, 2 mM Na EDTA), and resuspended in 1×PFAE buffer for staining.
(§2) For the binding reaction, 100 μl of this diluted antibody mixture was added to 2×10⁵ cells and the mixture was incubated on at 4° C. for 30 minutes. The cells were then washed two times with 1×PFAE buffer. A 1:200 dilution of PE-labeled goat anti-human Fcγ-specific antibody (Jackson ImmunoResearch, Cat. #109-116-170) was added and the mixture was incubated for 30 minutes at 4° C., followed by washing twice with cold 1×PFAE buffer. After the final wash, 150 μl of cold 1×PFAE was added to each solution and analysis of antibody binding was carried out by flow cytometry using a FACSCanto flow cytometer (BD Bioscience).

The target is the same in assay [2]. In words: flow cytometry on activated human CD4+ T cells (donor WB1907), FL2 GMFI; antibody after 5 days at 40 °C in pH 8.0 ammonium bicarbonate. The method, then:
as §1, §2
On the technique in general: In flow cytometry, cells or beads pass a laser one at a time.

B1: LAG3.5 monoclonal antibody (variant of 25F7 with R at position 54 and S at position 56 of VH CDR2) (antibody, human IgG4 S228P, kappa, V domains shown)
VH: QVQLQQWGAGLLKPSETLSLTCAVYGGSFSDYYWNWIRQPPGKGLEWIGEINHRGSTNSNPSLKSRVTLSLDTSKNQFSLKLRSVTAADTAVYYCAFGYSDYEYNWFDPWGQGTLVTVSS
VL: EIVLTQSPATLSLSPGERATLSCRASQSISSYLAWYQQKPGQAPRLLIYDASNRATGIPARFSGSGSGTDFTLTISSLEPEDFAVYYCQQRSNWPLTFGQGTNLEIKR
By EC50 is commonly meant the concentration needed to bring the measured effect to its halfway point. For the molecule B1, the EC50 in assay [1] and in assay [2] was 460 pM each time.
